PubChem BioAssay AID2803 (The Scripps Research Institute Molecular Screening Center, 2010)
The list shows a part of the results, in another mix than the full data. The source made the active and inactive calls. Rule as the data show it: active = inhibition above about 43%; inactive = the rest.

Protein sequences, listed by entry. Tags and fused reporters are not part of them.
UniProt Q4J6C6, whole entry, looked up: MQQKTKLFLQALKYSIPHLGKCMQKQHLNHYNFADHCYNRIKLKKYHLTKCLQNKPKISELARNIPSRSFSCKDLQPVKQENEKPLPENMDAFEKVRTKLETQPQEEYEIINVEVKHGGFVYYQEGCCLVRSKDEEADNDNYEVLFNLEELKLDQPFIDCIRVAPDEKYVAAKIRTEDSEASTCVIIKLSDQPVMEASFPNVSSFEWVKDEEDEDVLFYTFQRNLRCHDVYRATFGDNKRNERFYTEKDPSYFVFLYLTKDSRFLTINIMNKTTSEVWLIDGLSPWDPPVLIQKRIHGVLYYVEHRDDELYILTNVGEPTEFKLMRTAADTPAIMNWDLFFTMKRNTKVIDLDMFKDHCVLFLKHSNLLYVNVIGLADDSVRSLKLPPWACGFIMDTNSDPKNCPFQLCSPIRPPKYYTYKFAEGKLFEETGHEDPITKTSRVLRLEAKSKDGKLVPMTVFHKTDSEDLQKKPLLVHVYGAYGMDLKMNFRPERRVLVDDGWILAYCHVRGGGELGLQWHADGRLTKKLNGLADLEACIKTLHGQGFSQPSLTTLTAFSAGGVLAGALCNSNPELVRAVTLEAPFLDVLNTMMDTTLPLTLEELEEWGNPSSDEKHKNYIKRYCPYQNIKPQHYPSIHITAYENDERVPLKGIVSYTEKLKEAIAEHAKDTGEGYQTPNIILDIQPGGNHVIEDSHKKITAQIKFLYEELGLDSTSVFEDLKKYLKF

target: Prolyl endopeptidase-like (Homo sapiens) (UniProt Q4J6C6); assay: human PREPL enzyme inhibitors, confirmation, biochemical, fluorescence polarization (AID 2803); conditions: recombinant PREPL, fluorescence polarization activity probe; at 5.96 µM; hits give high values;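 also: 0% = protein with DMSO and 100% = wells lacking protein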

Row | Compound | inhibition
1 | CN(C(=O)Cc1ccc(Cl)c(Cl)c1)[C@H]1CCCC[C@H]1N1CCCC1 | active: 52.6%
